{"source": "paper PMC3794980", "about": "“Identification of Conserved and HLA Promiscuous DENV3 T-Cell Epitopes” (PLoS Neglected Tropical Diseases, 2013)", "experiment_in_all_cases": "biochemical", "type_in_all_cases": "binding", "key": {"[1]": {"molecular_target": "DRB1*0301 (Homo sapiens, UniProt P01903+P01911, A100K/A102G/A103R/A169T/F55Y/I96L/K41T/L162R/M171V/P40S/Q125H/Q178H/Q39Y/R42S/S66N/T106N/T262R/W38E/Y61H)"}, "[2]": {"molecular_target": "DRB1*0401 (Homo sapiens, UniProt P01903+P01911, A100K/A169T/F76Y/I96L/K127E/L162R/M171V/N62H/P40V/Q125Y/R42H/S133A/S149N/S66Y/V115G/V209L/W38E)"}, "[3]": {"molecular_target": "DRB1*0404 (Homo sapiens, UniProt P01903+P01911, A100R/A169T/F76Y/I96L/K127E/L162R/M171V/N62H/P40V/Q125Y/R42H/S133A/S149N/S66Y/V209L/W38E)"}, "[4]": {"molecular_target": "DRB1*0405 (Homo sapiens, UniProt P01903+P01911, A100R/A169T/D86S/F76Y/I96L/K127E/L162R/M171V/N62H/P40V/Q125Y/R42H/S133A/S149N/S66Y/V115G/V209L/W38E)"}, "[5]": {"molecular_target": "DRB1*0802 (Homo sapiens, UniProt P01903+P01911, A100R/A103L/A169T/F76Y/H45Y/I96F/K41T/L162R/M171V/P40S/Q125H/Q178H/Q39Y/Q99D/R218S/R42G/S66Y/V115G/W38E)"}, "[6]": {"molecular_target": "DRB1*0901 (Homo sapiens, UniProt P01903+P01911, A100R/A103E/D57H/D86V/F55Y/F60I/F76Y/I96F/K127E/L162R/M171V/P40D/Q125H/Q99R/R33Q/R42F/S133A/S66N/T210M/V115G/W38K/Y107V/Y59G/Y89S)"}, "[7]": {"molecular_target": "DRB1*0701 (Homo sapiens, UniProt P01903+P01911, A100R/A102G/A103Q/D57E/D86V/E43K/F76Y/K127E/L162R/M171V/P40G/Q125H/Q99D/R33Q/R42Y/R54Q/S133A/S66F/T210M/V115G/Y107V/Y59L/Y89S)"}, "[8]": {"molecular_target": "DRB1*1101 (Homo sapiens, UniProt P01903+P01911, A100R/A169T/A87E/I96F/K41T/L162R/M171V/P40S/Q125H/Q178H/Q39Y/Q99D/R42S/S66Y/T262R/V115G/W38E)"}, "[9]": {"molecular_target": "DRB1*1302 (Homo sapiens, UniProt P01903+P01911, A100E/A169T/K41T/L162R/M171V/P40S/Q125H/Q178H/Q39Y/Q99D/R42S/S66N/T262R/V115G/W38E/Y61H)"}, "[10]": {"molecular_target": "DRB1*1501 (Homo sapiens, UniProt P01903+P01911)"}, "[11]": {"molecular_target": "DRB1*0101 (Homo sapiens, UniProt P01903+P01911, A100R/D57E/F55L/F60I/F76Y/I96L/L162R/M171V/P40L/Q125E/R42F/V115G/Y59C)"}, "[12]": {"details": "competitive inhibition of radiolabeled standard peptide, DRB1*0901, read-out: Binding Affinity (nM) DRB1*0901"}}, "note": "Read-outs that look alike come from different tables or passages of the source.", "data": [{"smiles": "CC[C@H](C)[C@H](NC(=O)[C@@H](NC(=O)[C@H](CCCCN)NC(=O)[C@H](CCCCN)NC(=O)CNC(=O)[C@H](CC(N)=O)NC(=O)[C@H](CCCCN)NC(=O)[C@H](CCCNC(=N)N)NC(=O)[C@H](CC(C)C)NC(=O)[C@H](CS)NC(=O)[C@H](CC(N)=O)NC(=O)[C@H](C)N)C(C)C)C(=O)N[C@@H](CCC(N)=O)C(=O)N[C@@H](CC(C)C)C(=O)N[C@@H](CO)C(=O)O", "note": "[NS3 373-387]", "values": [{"measurement": "IC50", "setting": "[1]", "value": 11400, "unit": "nM"}, {"measurement": "IC50", "setting": "[2]", "value": 2.75, "unit": "µM"}, {"measurement": "IC50", "setting": "[3]", "value": 11300, "unit": "nM"}, {"measurement": "IC50", "setting": "[4]", "value": 5300, "unit": "nM"}, {"measurement": "IC50", "setting": "[5]", "value": 16100, "unit": "nM"}, {"measurement": "IC50", "setting": "[6]; [12]", "value": 3570, "unit": "nM"}]}, {"smiles": "CC[C@H](C)[C@H](NC(=O)[C@@H](N)C(C)C)C(=O)N[C@@H](CC(C)C)C(=O)N[C@H](C(=O)N[C@@H](CC(=O)O)C(=O)NCC(=O)N1CCC[C@H]1C(=O)N[C@@H](CCC(=O)O)C(=O)N[C@@H](CCCNC(=N)N)C(=O)N[C@H](C(=O)N[C@H](C(=O)N[C@@H](CC(C)C)C(=O)N[C@@H](C)C(=O)NCC(=O)N1CCC[C@H]1C(=O)O)[C@@H](C)CC)C(C)C)[C@@H](C)O", "note": "[NS3 433-447]", "values": [{"measurement": "IC50", "setting": "[1]", "value": 69, "unit": "nM"}, {"measurement": "IC50", "setting": "[2]", "value": 4.18, "unit": "µM"}, {"measurement": "IC50", "setting": "[3]", "value": 5110, "unit": "nM"}, {"measurement": "IC50", "setting": "[4]", "value": 3980, "unit": "nM"}, {"measurement": "IC50", "setting": "[7]", "value": 18.8, "unit": "µM"}, {"measurement": "IC50", "setting": "[5]", "value": 8720, "unit": "nM"}, {"measurement": "IC50", "setting": "[6]", "value": 3760, "unit": "nM"}, {"measurement": "IC50", "setting": "[8]; read-out: Binding Affinity (nM) DRB1*1101", "value": "> 20000", "unit": "nM"}, {"measurement": "IC50", "setting": "[9]", "value": 24, "unit": "nM"}, {"measurement": "IC50", "setting": "[10]", "value": 1.73, "unit": "µM"}]}, {"smiles": "CSCC[C@H](NC(=O)CNC(=O)CNC(=O)[C@H](Cc1c[nH]cn1)NC(=O)[C@H](CCCCN)NC(=O)[C@H](CCCNC(=N)N)NC(=O)[C@H](CCC(N)=O)NC(=O)[C@H](CC(C)C)NC(=O)[C@H](CCCNC(=N)N)NC(=O)[C@H](CCC(=O)O)NC(=O)[C@@H](N)CC(C)C)C(=O)N[C@@H](CC(C)C)C(=O)N[C@H](C(=O)N[C@@H](CCCNC(=N)N)C(=O)N[C@@H](CC(N)=O)C(=O)N1CCC[C@H]1C(=O)N[C@@H](CC(C)C)C(=O)O)C(C)C", "note": "[NS5 193-209]", "values": [{"measurement": "IC50", "setting": "[1]", "value": 7460, "unit": "nM"}, {"measurement": "IC50", "setting": "[2]", "value": 6.38, "unit": "µM"}, {"measurement": "IC50", "setting": "[3]; read-out: Binding Affinity (nM) DRB1*0404", "value": "> 20000", "unit": "nM"}, {"measurement": "IC50", "setting": "[4]; read-out: Binding Affinity (nM) DRB1*0405", "value": "> 20000", "unit": "nM"}, {"measurement": "IC50", "setting": "[7]", "value": 0.144, "unit": "µM"}, {"measurement": "IC50", "setting": "[5]; read-out: Binding Affinity (nM) DRB1*0802", "value": "> 20000", "unit": "nM"}, {"measurement": "IC50", "setting": "[6]", "value": 1130, "unit": "nM"}, {"measurement": "IC50", "setting": "[8]", "value": 110, "unit": "nM"}, {"measurement": "IC50", "setting": "[9]", "value": 15, "unit": "nM"}, {"measurement": "IC50", "setting": "[10]", "value": 0.199, "unit": "µM"}]}, {"smiles": "CC(C)C[C@H](NC(=O)[C@H](Cc1ccccc1)NC(=O)CN)C(=O)N[C@@H](CC(N)=O)C(=O)N[C@@H](CCC(=O)O)C(=O)N[C@@H](CC(=O)O)C(=O)N[C@@H](Cc1c[nH]cn1)C(=O)N[C@@H](Cc1c[nH]c2ccccc12)C(=O)N[C@@H](Cc1ccccc1)C(=O)N[C@@H](CO)C(=O)N[C@@H](CCCNC(=N)N)C(=O)N[C@@H](CCC(=O)O)C(=O)N[C@@H](CC(N)=O)C(=O)N[C@@H](CO)C(=O)N[C@@H](Cc1ccc(O)cc1)C(=O)N[C@@H](CO)C(=O)NCC(=O)O", "note": "[NS5 489-505]", "values": [{"measurement": "IC50", "setting": "[11]", "value": 0.231, "unit": "µM"}, {"measurement": "IC50", "setting": "[1]", "value": 118, "unit": "nM"}, {"measurement": "IC50", "setting": "[2]", "value": 0.027, "unit": "µM"}, {"measurement": "IC50", "setting": "[7]", "value": 4.32, "unit": "µM"}, {"measurement": "IC50", "setting": "[5]", "value": 6260, "unit": "nM"}, {"measurement": "IC50", "setting": "[6]", "value": 3000, "unit": "nM"}, {"measurement": "IC50", "setting": "[8]", "value": 1950, "unit": "nM"}, {"measurement": "IC50", "setting": "[9]; read-out: Binding Affinity (nM) DRB1*1302", "value": "> 20000", "unit": "nM"}, {"measurement": "IC50", "setting": "[10]", "value": 2.89, "unit": "µM"}]}, {"smiles": "CC[C@H](C)[C@H](NC(=O)[C@H](CC(C)C)NC(=O)[C@H](CO)NC(=O)CNC(=O)[C@H](CS)NC(=O)[C@H](Cc1c[nH]c2ccccc12)NC(=O)[C@H](CCC(N)=O)NC(=O)[C@H](CC(=O)O)NC(=O)[C@H](CCC(=O)O)NC(=O)[C@H](CCCNC(=N)N)NC(=O)[C@H](CCCCN)NC(=O)CNC(=O)[C@H](CC(C)C)NC(=O)[C@@H](N)Cc1ccc(O)cc1)C(=O)NCC(=O)N[C@@H](CC(C)C)C(=O)N[C@H](C(=O)O)[C@@H](C)O", "note": "[NS5 838-854]", "values": [{"measurement": "IC50", "setting": "[1]; read-out: Binding Affinity (nM) DRB1*0301", "value": "> 20000", "unit": "nM"}, {"measurement": "IC50", "setting": "[2]", "value": 3.55, "unit": "µM"}, {"measurement": "IC50", "setting": "[3]", "value": 2090, "unit": "nM"}, {"measurement": "IC50", "setting": "[4]", "value": 1470, "unit": "nM"}, {"measurement": "IC50", "setting": "[7]", "value": 2.77, "unit": "µM"}, {"measurement": "IC50", "setting": "[5]", "value": 573, "unit": "nM"}, {"measurement": "IC50", "setting": "[6]; [12]", "value": 680, "unit": "nM"}, {"measurement": "IC50", "setting": "[8]", "value": 10500, "unit": "nM"}, {"measurement": "IC50", "setting": "[9]; competitive inhibition of radiolabeled standard peptide, DRB1*1302, read-out: Binding Affinity (nM) DRB1*1302", "value": 12000, "unit": "nM"}, {"measurement": "IC50", "setting": "[10]", "value": 2.9, "unit": "µM"}]}]}
